The values that follow are results of earlier work, collected in article PMC7438494, “Bedaquiline inhibits the yeast and human mitochondrial ATP synthases” (Communications Biology, 2020).

Molecules are shown by their SMILES.

In the series the test system is porcine mitochondria.

With `COc1nc2ccc(Br)cc2cc1[C@@H](c1ccccc1)[C@@](O)(CCN(C)C)c1cccc2ccccc12`, the uncoupling effect entry is given as “not observed”.
